In patent publication US20250381183A1, “TARGETING S100A9-ALDH1A1-RETINOIC ACID SIGNALING TO SUPPRESS BRAIN RELAPSE IN EGFR-MUTANT LUNG CANCER” (The Trustees of Columbia University in the City of New York, priority 2022, published 2025):

Legend:
PC9-BrM cells = assay: PC9-BrM metastatic EGFR-mutant lung cancer mouse model, long-term osimertinib treatment; conditions: continuous osimertinib treatment, bioluminescence imaging
H1650-BrM cells = assay: H1650-BrM metastatic EGFR-mutant lung cancer mouse model, long-term osimertinib treatment; conditions: of osimertinib-treated mice with brain relapse

## C=CC(=O)Nc1cc(Nc2nccc(-c3cn(C)c4ccccc34)n2)c(OC)cc1N(C)CCN(C)C [osimertinib]
PC9-BrM cells
  progression of brain metastases: gradually progressed
H1650-BrM cells
  relapsed mice that also developed lung lesions: 45%
